Experimental findings from PubChem BioAssay AID504339 (National Center for Advancing Translational Sciences (NCATS), 2011) are described below.

Protein sequences, listed by entry. Tags and fused reporters are not part of them.
UniProt O75164, whole entry: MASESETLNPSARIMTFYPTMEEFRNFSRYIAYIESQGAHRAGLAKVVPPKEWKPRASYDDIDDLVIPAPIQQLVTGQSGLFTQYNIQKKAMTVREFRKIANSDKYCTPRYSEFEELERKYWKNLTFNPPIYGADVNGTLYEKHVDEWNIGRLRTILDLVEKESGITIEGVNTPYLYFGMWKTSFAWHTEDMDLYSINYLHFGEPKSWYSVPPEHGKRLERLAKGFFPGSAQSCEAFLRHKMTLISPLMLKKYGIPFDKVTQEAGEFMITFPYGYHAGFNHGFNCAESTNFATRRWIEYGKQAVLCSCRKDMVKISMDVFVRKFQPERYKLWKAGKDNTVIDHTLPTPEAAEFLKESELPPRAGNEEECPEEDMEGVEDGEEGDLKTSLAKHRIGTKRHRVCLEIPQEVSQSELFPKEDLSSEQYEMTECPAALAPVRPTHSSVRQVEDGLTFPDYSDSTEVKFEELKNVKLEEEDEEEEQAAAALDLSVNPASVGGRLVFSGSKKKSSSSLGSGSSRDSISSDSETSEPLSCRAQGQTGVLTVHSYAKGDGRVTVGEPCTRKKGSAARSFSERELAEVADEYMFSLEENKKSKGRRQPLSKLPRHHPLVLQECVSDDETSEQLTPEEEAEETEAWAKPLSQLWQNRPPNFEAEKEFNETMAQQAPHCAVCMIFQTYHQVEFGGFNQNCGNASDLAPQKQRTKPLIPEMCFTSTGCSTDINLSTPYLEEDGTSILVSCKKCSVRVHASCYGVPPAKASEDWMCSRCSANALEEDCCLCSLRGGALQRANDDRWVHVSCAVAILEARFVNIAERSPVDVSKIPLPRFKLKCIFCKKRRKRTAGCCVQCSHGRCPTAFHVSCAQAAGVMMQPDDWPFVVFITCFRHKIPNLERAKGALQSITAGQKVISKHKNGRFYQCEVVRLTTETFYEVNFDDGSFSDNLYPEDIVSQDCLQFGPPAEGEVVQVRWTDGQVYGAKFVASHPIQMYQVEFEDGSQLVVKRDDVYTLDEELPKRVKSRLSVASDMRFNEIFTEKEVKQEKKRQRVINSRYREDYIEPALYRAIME

Molecules are shown by their SMILES. Where “and” joins values, the source holds several entries; their conditions need not be identical. Equal entries are not always repeated. The list shows a part of the results, in another mix than the full data. Some tests of the compounds listed are not included; inactive here does not mean inactive elsewhere. Results filed as inconclusive are left out. Calls of active or inactive are those of the source. The call rests on the fitted dose curve; in most records, active means well fitted inhibition curve with a large enough effect; inconclusive means small, poorly fitted or top-dose-only effect; inactive means no such curve, though single readings can be large or run the other way.
On the % scale 0 is the no-effect control and ±100 the full control effect.

This experiment concerns the target Lysine-specific demethylase 4A (Homo sapiens) (UniProt O75164). Nature of the experiment: qHTS Assay for Inhibitors of JMJD2A-Tudor Domain. Further: nearly all actives have a fitted effect of over 50% in size. Particulars: AlphaScreen JMJD2A-Tudor / H3K4me3 peptide binding; at 114 µM (top of the series) unless noted. In general terms: In qHTS, concentration-response curves come from the screen itself.
With `O=C(OC1CN2CCC1CC2)C(CO)(c1ccccc1)c1ccccc1` (stereo not given), the activity change, negative = inhibition was inactive: -10.1%.
To `COc1cccc(C(=O)NCC2(N3CCOCC3)CCCCC2)c1` belongs inactive: -10.6%.
To `CC(C)COc1ccc(C(=O)NCC2(N(C)C)CCCCC2)cc1` belongs inactive: -7.28%.
For `COc1ccc(Br)c(C(=O)NCC2(N3CCCCC3)CCCCC2)c1` the value was inactive: -24.2%; for `Cc1cccc(C(=O)NCC2(N(C)C)CCCCC2)c1`, inactive: -16.9%; for `COc1cc(C(=O)NCC2(N(C)C)CCCCC2)cc(OC)c1OC`, inactive: 2.98%.
With `CN(C)c1cccc(C(=O)NCC2(N(C)C)CCCCC2)c1`, the activity change, negative = inhibition is inactive: -4.12%.
As to `O=C(OCCN1CCCC1)C(O)(c1ccccc1)c1ccccc1`, the activity change, negative = inhibition is inactive: -14.4%.
As to `CC(C)Oc1ccc(C(=O)NCC2(N(C)C)CCCCC2)cc1`, the activity change, negative = inhibition was inactive: -13.6% and inactive: -8.81%.
For `CN(C)C1(CNC(=O)c2ccc(Br)cc2)CCCCC1` the value was inactive: -7.04%.
To `COc1cc(C(=O)NCC2(N(C)C)CCCCC2)c([N+](=O)[O-])cc1OC` belongs inactive: -12.4%.
To `COc1ccc(C(=O)NCC2(N(C)C)CCCCC2)cc1Cl` belongs inactive: -8.61%.
Regarding `COc1ccc(Cl)cc1C(=O)NCC1(N(C)C)CCCCC1`, the activity change, negative = inhibition was inactive: -14.9%.
For `COc1cccc(C(=O)NCC2(N3CCCCC3)CCCCC2)c1` the value was inactive: -12.5%; for `O=C(NCC1(N2CCCCC2)CCCCC1)c1cccc(Cl)c1`, inactive: -14.5%; for `CN(C)c1ccc(C(=O)NCC2(N(C)C)CCCCC2)cc1`, inactive: -12.9%.
To `CN(C)C1CCCC1OC(=O)C(O)(c1ccccc1)c1ccccc1` (stereo not given) belongs inactive: -29.4% [at 57.1 µM]; to `Cc1ccccc1C(=O)NCC1(N2CCCCC2)CCCCC1`, inactive: -16.3%.
To `CN(C)C1(CNC(=O)c2ccccc2[N+](=O)[O-])CCCCC1` belongs inactive: -4.3%.
Take `CCCCOc1ccccc1C(=O)NCC1(N(C)C)CCCCC1`: the activity change, negative = inhibition is inactive: -13.2%.
For `O=C(NCC1(N2CCCCC2)CCCCC1)c1cc(F)c(F)cc1Cl` the value was inactive: -12.6%.
For `C=CCN1CCN(CCOC(=O)C(O)(c2ccccc2)c2ccccc2)CC1` the value was inactive: -13%; for `O=C(NCC1(N2CCCCC2)CCCCC1)c1cccc(Br)c1`, inactive: -15.1%.
Turning to `CCN1CCCC(OC(=O)C2(O)c3ccccc3C=Cc3ccccc32)C1` (stereo not given), the activity change, negative = inhibition was inactive: 16%.
To `Cc1cc(C(=O)NCC2(N3CCCCC3)CCCCC2)ccc1[N+](=O)[O-]` belongs inactive: -11%; to `CCOc1cccc(C(=O)NCC2(N(C)C)CCCCC2)c1`, inactive: -1.99%.
To `COc1ccc(C(=O)NCC2(N(C)C)CCCCC2)cc1` belongs inactive: 7.12%; to `O=C(NCC1(N2CCCCC2)CCCCC1)c1cc([N+](=O)[O-])ccc1Cl`, inactive: -9.94%.
To `CN1[C@@H]2CC[C@H]1CC(OC(=O)C(O)(c1ccccc1)c1ccccc1)C2` (stereo not given in full) belongs inactive: -11.7%; to `CC(C)N1C(=O)CC2(CCN(CCOC(=O)C(O)(c3ccccc3)c3ccccc3)CC2)C1=O`, inactive: 4.94%; to `COc1cc(SC)ccc1C(=O)NCC1(N(C)C)CCCCC1`, inactive: -12.7%.
On to `CN(C)C1(CNC(=O)c2cccc(Cl)c2)CCCCC1`, for which the activity change, negative = inhibition was inactive: -4.3%.
For `CCN(CC)CC(C)C(C)OC(=O)C(O)(c1ccccc1)c1ccccc1` (stereo not given) the value was inactive: -15.2%; for `CN(C)C1(CNC(=O)c2ccccc2F)CCCCC1`, inactive: -9.93%.
To `Cc1ccc(C(=O)NCC2(N3CCCCC3)CCCCC2)cc1` belongs inactive: -9.25%.
